{"source": "paper PMC9781916", "about": "“Antipsychotic- and Anxiolytic-like Properties of a Multimodal Compound JJGW08 in Rodents” (International Journal of Molecular Sciences, 2022)", "test_system": "mice", "experiment": "Catalepsy bar test in mice", "type": "in vivo", "protocol": "The minimum cataleptogenic dose was defined as the lowest dose inducing a mean catalepsy score of ≥1 at 30, 60, or 120 min post-treatment.\nCatalepsy was assessed using the bar method described by Ueki et al. with minor modifications. The front paws of the mice were placed on a cylindrical metal bar located 4 cm above the tabletop’s surface, while the hind paws remained on the tabletop. The time in which the animal held both paws on the bar was measured at 30, 60, and 120 min after the administration of the tested compound, with a maximum measurement time of 60 s. Each of the measurements consisted of placing the animal’s paws on the bar three times unless the mouse was on it for 60 s; then, no further trial was performed. The score for each trial was assessed as follows: • - 0 points if the animals held the constrained position < 15 s; • - 1 point when the animal stayed on the bar for 15–29.9 s; • - 2 points for when the animal stayed on the bar for 30–59.9 s; • - 3 points for staying on the bar for more than 60 s.\nThe minimum cataleptogenic dose was defined as the lowest dose inducing a mean catalepsy score of ≥1 at 30, 60, or 120 min post-treatment. The tested compound was administered ip at the dose range of 5–20 mg/kg.", "data": [{"smiles": "Cc1cc2c(s1)Nc1ccccc1N=C2N1CCN(C)CC1", "note": "[Olanzapine, reference compound]", "values": [{"measurement": "Mean Score (catalepsy)", "setting": "5 mg/kg ip, 30 min", "result": 0.8}, {"measurement": "Mean Score (catalepsy)", "setting": "5 mg/kg ip, 60 min", "result": 0.8}, {"measurement": "Mean Score (catalepsy)", "setting": "5 mg/kg ip, 120 min", "result": 0.7}, {"measurement": "Mean Score (catalepsy)", "setting": "10 mg/kg ip, 30 min", "result": 0.7}, {"measurement": "Mean Score (catalepsy)", "setting": "10 mg/kg ip, 60 min", "result": 1.6}, {"measurement": "Mean Score (catalepsy)", "setting": "10 mg/kg ip, 120 min", "result": 1.3}, {"measurement": "Mean Score (catalepsy)", "setting": "20 mg/kg ip, 30 min", "result": 0.7}, {"measurement": "Mean Score (catalepsy)", "setting": "20 mg/kg ip, 60 min", "result": 2.0}, {"measurement": "Mean Score (catalepsy)", "setting": "20 mg/kg ip, 120 min", "result": 1.8}, {"measurement": "minimum (lowest) cataleptogenic dose", "setting": "ip, lowest dose with mean catalepsy score ≥1 at 30, 60 or 120 min", "result": 10, "unit": "mg/kg"}]}]}
